# Yeast mating assay 1: variants of the scFv Ab-14

Target peptide (SARS-CoV-2 spike, HR2 region): PDVDLGDISGINAS

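Phage display of a naive human antibody library on the peptide gave the parent. Variants in AAYL50 differ from the parent at up to three CDR positions; double and triple changes were sampled at random. The scFvs were displayed on barcoded MATa yeast, the peptide on MATalpha yeast. Pairs that bind mate more often; barcode pairs of the diploids are counted by sequencing. A regression on co-assayed BCL2-family reference pairs converts the normalised counts of each replicate to an apparent Kd. Each pool was mated in three replicate cultures.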

Parent: Ab-14, a human scFv built as VH, the linker GGGGSGGGGSGGGGS, VL. Only the CDRs of the light chain vary.
VH: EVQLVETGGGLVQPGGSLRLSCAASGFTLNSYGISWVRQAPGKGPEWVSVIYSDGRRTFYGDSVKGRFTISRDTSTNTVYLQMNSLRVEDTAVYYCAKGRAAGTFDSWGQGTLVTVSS
VL: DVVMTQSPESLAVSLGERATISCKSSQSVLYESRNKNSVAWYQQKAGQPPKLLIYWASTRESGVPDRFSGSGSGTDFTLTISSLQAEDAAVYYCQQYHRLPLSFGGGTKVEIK

Substitutions are numbered in sequence along the VL above, starting at 1 (not Kabat). Every variant below is changed at Q96 of the VL (sequential numbering). The Kd shown is the geometric mean over detected replicates; a lower Kd is a better binder. An entry "not detected" has no value in the source: the pair was not observed among the diploids in any replicate. This suggests poor binding but is not conclusive. Empty control strains, which show no peptide, gave a signal in 18% of pairings with library AAYL50; the median was 15 µM and 95% of these signals were weaker than 970 nM. No background was subtracted. For reference, the parent read 4.4 nM as the reference entry and 48 nM as a member of this library.

changes	Kd (apparent)	seen in
T59N+Q96F+H98K	40 nM	3 of 3
Y31C+Q96D+L100M	540 nM	3 of 3
N37F+Q96V	not detected	0 of 3
W56D+Q96K+L102E	62 nM	3 of 3
V29F+N35S+Q96R	46 nM	3 of 3
N35E+Q95L+Q96V	not detected	0 of 3
E32R+E61I+Q96K	22 µM	3 of 3
Q95S+Q96L+R99H	not detected	0 of 3
Q96C	not detected	0 of 3
Y31A+W56Q+Q96L	not detected	0 of 3
S25W+V39W+Q96F	11 µM	1 of 3
E32M+E61R+Q96P	8.5 µM	3 of 3
S26V+R60S+Q96P	not detected	0 of 3
S25A+Q96C+H98A	87 µM	1 of 3
K24A+W56V+Q96L	130 µM	3 of 3
W56Y+Q96F	6.8 nM	3 of 3
S26W+Q95F+Q96C	not detected	0 of 3
E32S+S38D+Q96G	4.1 µM	3 of 3
A40W+R60Y+Q96C	24 µM	3 of 3
S33E+Q96H	32 nM	3 of 3
S25G+K36E+Q96P	9.6 nM	3 of 3
Q95K+Q96K+L102F	53 nM	3 of 3
L30V+T59K+Q96M	510 nM	3 of 3
Q27R+E32G+Q96P	96 µM	3 of 3
Q27D+V39W+Q96C	not detected	0 of 3
S25G+E32W+Q96L	4.2 µM	3 of 3
Q95M+Q96T+Y97C	not detected	0 of 3
S26D+Q95N+Q96K	1.2 nM	3 of 3
E61Q+Q96C	15 nM	3 of 3
S28V+S62G+Q96T	120 nM	3 of 3
K24T+S38P+Q96E	not detected	0 of 3
Q27Y+E32M+Q96M	not detected	0 of 3
K24M+Q96V+P101S	2.5 µM	3 of 3
S26G+Q96F+P101E	not detected	0 of 3
S28H+N35P+Q96C	not detected	0 of 3
Y31E+Q96M+P101D	19 µM	1 of 3
S33N+Q96G+P101D	not detected	0 of 3
N35H+A40T+Q96F	not detected	0 of 3
Q96M	24 nM	3 of 3
K36C+A40D+Q96P	48 µM	1 of 3
S28H+A57I+Q96Y	not detected	0 of 3
Y31R+Q96Y+P101S	73 nM	3 of 3
S38M+T59C+Q96S	2.9 µM	2 of 3
S25H+W56H+Q96D	880 pM	3 of 3
R34Y+Q96D+R99P	210 µM	1 of 3
W56M+Q96K+Y97C	26 µM	1 of 3
S26Y+V39N+Q96M	2.9 µM	1 of 3
S28E+E61I+Q96R	not detected	0 of 3
S25M+S58I+Q96S	not detected	0 of 3
Y31T+Q95K+Q96R	32 nM	3 of 3
T59L+Q95Y+Q96G	12 nM	3 of 3
K24I+Q95T+Q96G	2.4 µM	3 of 3
S25H+Q96M	680 nM	3 of 3
S33C+S38M+Q96G	not detected	0 of 3
N37Q+Q96V+Y97I	not detected	0 of 3
R34K+Q96V	4.0 nM	3 of 3
S25R+S38C+Q96F	490 nM	1 of 3
S62T+Q96F+R99E	350 nM	3 of 3
A40K+A57N+Q96E	not detected	0 of 3
V39I+S58Q+Q96S	570 nM	1 of 3
L30V+Q96N	6.0 nM	3 of 3
S25L+A40Q+Q96D	1.5 µM	3 of 3
S25E+Q95N+Q96D	not detected	0 of 3
K24Y+T59H+Q96I	not detected	0 of 3

11 of these entries, quoted again:

| changes | Kd (apparent) | seen in |
|---|---|---|
| S25H+Q96M | 680 nM | 3 of 3 |
| S33E+Q96H | 32 nM | 3 of 3 |
| A40K+A57N+Q96E | not detected | 0 of 3 |
| E32M+E61R+Q96P | 8.5 µM | 3 of 3 |
| R34Y+Q96D+R99P | 210 µM | 1 of 3 |
| Q27R+E32G+Q96P | 96 µM | 3 of 3 |
| W56M+Q96K+Y97C | 26 µM | 1 of 3 |
| S33C+S38M+Q96G | not detected | 0 of 3 |
| Y31R+Q96Y+P101S | 73 nM | 3 of 3 |
| Q95K+Q96K+L102F | 53 nM | 3 of 3 |
| S28V+S62G+Q96T | 120 nM | 3 of 3 |

The measurements come from Engelhart et al. 2022 (doi:10.1038/s41597-022-01779-4) through the FLAb antibody collection.